Test results reported in patent US20060211075.

Target: T1, peptide 23, Dap-substituted pyrene derivative at Y+3 (not fully specified)
T1 chain: EEEIYGEXEA

B1: Lck (protein)
chain: MGCGCSSHPEDDWMENIDVCENCHYPIVPLDGKGTLLIRNGSEVRDPLVTYEGSNPPASPLQDNLVIALHSYEPSHDGDLGFEKGEQLRILEQSGEWWKAQSLTTGQEGFIPFNFVAKANSLEPEPWFFKNLSRKDAERQLLAPGNTHGSFLIRESESTAGSFSLSVRDFDQNQGEVVKHYKIRNLDNGGFYISPRITFPGLHELVRHYTNASDGLCTRLSRPCQTQKPQKPWWEDEWEVPRETLKLVERLGAGQFGEVWMGYYNGHTKVAVKSLKQGSMSPDAFLAEANLMKQLQHQRLVRLYAVVTQEPIYIITEYMENGSLVDFLKTPSGIKLTINKLLDMAAQIAEGMAFIEERNYIHRDLRAANILVSDTLSCKIADFGLARLIEDNEYTAREGAKFPIKWTAPEAINYGTFTIKSDVWSFGILLTEIVTHGRIPYPGMTNPEVIQNLERGYRMVRPDNCPEELYQLMRLCWKERPEDRPTFDYLRSVLEDFFTATEGQYQPQP
Km: 96 µM
Vmax: 1.5 µmol/min/mg
